Results: patent US10202345B2, “Substituted azaspiro(4.5)decane derivatives” (priority 2014, dated 2019)

Amino acid sequences for entries named in this document (tags omitted).
UniProt P41146, whole entry: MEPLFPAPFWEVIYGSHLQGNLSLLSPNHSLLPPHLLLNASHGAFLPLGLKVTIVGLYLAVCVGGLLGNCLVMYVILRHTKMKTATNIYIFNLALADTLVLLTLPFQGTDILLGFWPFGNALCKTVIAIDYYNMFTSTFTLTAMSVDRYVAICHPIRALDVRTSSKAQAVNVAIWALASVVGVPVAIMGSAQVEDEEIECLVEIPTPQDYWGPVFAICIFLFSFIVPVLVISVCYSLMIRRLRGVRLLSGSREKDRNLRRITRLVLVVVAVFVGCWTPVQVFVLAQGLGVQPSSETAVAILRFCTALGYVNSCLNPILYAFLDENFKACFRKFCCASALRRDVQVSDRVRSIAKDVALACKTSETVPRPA
UniProt P35372, whole entry: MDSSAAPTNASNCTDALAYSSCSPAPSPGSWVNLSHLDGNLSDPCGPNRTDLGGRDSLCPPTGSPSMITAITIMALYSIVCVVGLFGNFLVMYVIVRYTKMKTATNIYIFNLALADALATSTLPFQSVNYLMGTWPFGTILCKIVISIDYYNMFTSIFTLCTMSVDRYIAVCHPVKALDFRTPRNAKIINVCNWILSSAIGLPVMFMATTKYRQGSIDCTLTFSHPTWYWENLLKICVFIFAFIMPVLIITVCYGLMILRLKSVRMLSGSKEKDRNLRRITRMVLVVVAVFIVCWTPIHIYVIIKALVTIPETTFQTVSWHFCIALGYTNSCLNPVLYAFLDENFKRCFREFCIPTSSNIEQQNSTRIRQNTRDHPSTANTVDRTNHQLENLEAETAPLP

How the values were obtained:
ORL1 receptor = ORL1 receptor (Homo sapiens, UniProt P41146); assay: ORL1 receptor binding assay with 3H-nociceptin/orphanin FQ (WGA-SPA beads); details: for Ki: read-out: Ki (ORL1) mean, mean; for % inhibition (ORL1) [1 μM]: test concentration 1 μM
rats [1] = assay: Analgesia in the tail flick (focal ray) test in rats, intravenous administration
human μ opiate receptor = human μ opiate receptor (Homo sapiens, UniProt P35372); assay: μ opiate receptor binding assay with [3H]-naloxone (WGA-SPA beads); details: for Ki: read-out: Ki (μ) mean [μm], mean; for % inhibition (μ) [1 μM]: test concentration 1 μM
rats [2] = assay: Chung model: mononeuropathy pain following spinal nerve ligation (mechanical allodynia, von Frey)

| SMILES | Ki (ORL1 receptor) [nM] | % inhibition (ORL1) [1 μM] (ORL1 receptor; 1 µM) [%] | Tail flick rat, i.v. % MPE (@μg/kg) (rats [1]; @100 μg/kg) [%@100] | Ki (human μ opiate receptor) [nM] | % inhibition (μ) [1 μM] (human μ opiate receptor; 1 µM) [%] | SNL rat, i.v. % MPE (@μg/kg) (rats [2]; @21.5 μg/kg) [%@21.5] | Tail flick rat, i.v. ED50 rat [μg/kg] (rats [1]) [µg/kg] | SNL rat, i.v. % MPE (@μg/kg) (rats [2]; @46.4 μg/kg) [%@46.4] | % inhibition (ORL1) [1 μM] (ORL1 receptor) [%] | % inhibition (μ) [1 μM] (human μ opiate receptor) [%] | Tail flick rat, i.v. % MPE (@μg/kg) (rats [1]; @10 μg/kg) [%@10] | Tail flick rat, i.v. % MPE (@μg/kg) (rats [1]; @1000 μg/kg) [%@1000] |
| --- | --- | --- | --- | --- | --- | --- | --- | --- | --- | --- | --- | --- |
| CN(C)C1(c2cccs2)CCC2(CC1)CC(=O)N(CCC1CCCO1)C2 (single isomer, unassigned) [137] | 475 | 43 | 100 | 595 | 44 |  |  |  |  |  |  |  |
| CN(C)C1(c2cccs2)CCC2(CC1)CC(=O)N(CCC1(C#N)CC1)C2 (single isomer, unassigned) [144] | 4.1 | 91 |  | 2.05 | 99.5 | 64 | 11.5 |  |  |  |  |  |
| CN(C)C1(c2ccccc2)CCC2(CC1)CC(=O)N(CCC1(C#N)CC1)C2 (single isomer, unassigned) [175] | 3.95 | 96 |  | 2.4 | 99.5 |  | 55 | 72 |  |  |  |  |
| CN(C)C1(c2cccs2)CCC2(CC1)CC(=O)N(CC1(O)CCC1)C2 (single isomer, unassigned) | 9.55 |  | 52 | 6.15 |  |  |  |  | 85 | 98.5 |  |  |
| CN(C)C1(c2cccs2)CCC2(CC1)CC(=O)N(CC1CCOCC1)C2 (single isomer, unassigned) [138] | 21.5 | 74 |  | 7.05 | 97 |  | 30.1 |  |  |  |  |  |
| COC(C)(C)CCN1CC2(CCC(c3ccccc3)(N(C)C)CC2)CC1=O (single isomer, unassigned) [182] | 1.3 | 96.5 |  | 0.75 | 97 |  | 6.92 |  |  |  |  |  |
| CN(C)C1(c2cccs2)CCC2(CC1)CC(=O)N(CCC1(C#N)CCC1)C2 (single isomer, unassigned) [150] | 2.05 | 95 |  | 0.4 | 99 |  |  |  |  |  | 90 |  |
| CN(C)C1(c2ccccc2)CCC2(CC1)CC(=O)N(CCC1CCC1)C2 (single isomer, unassigned) [174] | 135 | 49.5 |  | 1670 | 28 |  |  |  |  |  |  |  |
| CCCC(=O)N1CCC2(CCC(c3cccs3)(N(C)C)CC2)C1 (stereo not drawn) [26] | 380 | 63 |  | 120 | 77.5 |  |  |  |  |  |  |  |
| COC(C)CN1CC2(CCC(c3ccccc3)(N(C)C)CC2)CC1=O (stereo not drawn) | 2.75 |  |  | 9.05 |  |  |  |  | 93 | 98 |  |  |
| CN(C)C1(c2cccs2)CCC2(CC1)CC(=O)N(CC(C)(C)O)C2 (single isomer, unassigned) | 36 |  |  | 20 |  |  |  |  | 73.5 | 97 |  |  |
| CCCCC1(N(C)C)CCC2(CC1)CC(=O)N(CCC1COC1)C2 (single isomer, unassigned) [409] | 1270 |  |  | 81 | 78.5 |  |  |  |  |  |  |  |
| CN(C)C1(c2ccccc2)CCC2(CC1)CC(=O)N(CC1COC1)C2 (single isomer, unassigned) [251] | 21.5 | 82 |  | 54 | 87 |  |  |  |  |  |  |  |
| COC1(CN2CCC3(CCC(c4ccccc4)(N(C)C)CC3)C2)CC1 (stereo not drawn) | 11.5 |  |  | 11 |  |  |  |  | 88 | 97.5 |  |  |
| CN(C)C1(c2cccs2)CCC2(CC1)CC(=O)N(CCC1CCOC1)C2 (single isomer, unassigned) [141] | 2.7 | 90.5 |  | 1.9 | 97.5 |  | 4.84 |  |  |  |  |  |
| COC(C)(C)CCN1CC2(CCC(c3ccccc3)(N(C)C)CC2)CC1=O (single isomer, unassigned) [183] | 300 | 39.5 |  | 795 | 23.5 |  |  |  |  |  |  |  |
| CN(C)C1(c2ccccc2)CCC2(CC1)CC(=O)N(CC1(O)CCC1)C2 (single isomer, unassigned) [180] | 180 | 49.5 |  | 300 | 66.5 |  |  |  |  |  |  |  |
| COC(C)(C)CCN1CC2(CCC(c3cccs3)(N(C)C)CC2)CC1=O (single isomer, unassigned) [220] | 1.2 | 99 |  | 0.41 | 97 |  |  |  |  |  |  |  |
| CN(C)C1(c2ccccc2)CCC2(CC1)CC(=O)N(CC1CCC1)C2 (stereo not drawn) [169] | 1.03 | 95.5 |  | 1.2 | 102 |  |  |  |  |  |  |  |
| CN(C)C1(c2cccs2)CCC2(CC1)CC(=O)N(CC1CCOCC1)C2 (single isomer, unassigned) [139] | 680 | 28.5 |  | 3880 | 23 |  |  |  |  |  |  |  |
| CN(C)C1(c2cccs2)CCC2(CC1)CC(=O)N(CC1COC1)C2 (single isomer, unassigned) [148] | 32 | 78 |  | 42.5 | 91 |  |  |  |  |  |  | 70 |

| SMILES | Ki (ORL1 receptor) [nM] | % inhibition (ORL1) [1 μM] (ORL1 receptor; 1 µM) [%] | Tail flick rat, i.v. % MPE (@μg/kg) (rats [1]; @100 μg/kg) [%@100] | Ki (human μ opiate receptor) [nM] | % inhibition (μ) [1 μM] (human μ opiate receptor; 1 µM) [%] | SNL rat, i.v. % MPE (@μg/kg) (rats [2]; @21.5 μg/kg) [%@21.5] | Tail flick rat, i.v. ED50 rat [μg/kg] (rats [1]) [µg/kg] | SNL rat, i.v. % MPE (@μg/kg) (rats [2]; @46.4 μg/kg) [%@46.4] | % inhibition (ORL1) [1 μM] (ORL1 receptor) [%] | % inhibition (μ) [1 μM] (human μ opiate receptor) [%] | Tail flick rat, i.v. % MPE (@μg/kg) (rats [1]; @10 μg/kg) [%@10] | Tail flick rat, i.v. % MPE (@μg/kg) (rats [1]; @1000 μg/kg) [%@1000] |
| --- | --- | --- | --- | --- | --- | --- | --- | --- | --- | --- | --- | --- |
| CN(C)C1(c2cccs2)CCC2(CC1)CC(=O)N(CCC1(C#N)CCC1)C2 (single isomer, unassigned) [151] | 22 | 63 |  | 29 | 95 |  |  |  |  |  |  |  |
| CN(C)C1(c2cccs2)CCC2(CC1)CC(=O)N(CC1CCCC1)C2 (single isomer, unassigned) [127] | 360 | 30 |  | 3970 | 25.5 |  |  |  |  |  |  |  |
| CN(C)C1(c2cccs2)CCC2(CC1)CC(=O)N(CC(C)(C)C#N)C2 (single isomer, unassigned) | 170 |  |  | 270 |  |  |  |  | 45.5 | 69 |  |  |
| COC(C)(C)CCN1CCC2(CCC(C3CCCC3)(N(C)C)CC2)C1 (stereo not drawn) | 163 |  |  | 8.4 |  |  |  |  | 69 | 98 |  |  |
| CN(C)C1(c2cccs2)CCC2(CC1)CC(=O)N(CCC(C)(C)O)C2 (single isomer, unassigned) [221] | 2 | 96.5 |  | 4.8 | 101 |  |  |  |  |  |  |  |
| CN(C)C1(c2ccccc2)CCC2(CC1)CC(=O)N(CCC1CC1)C2 (stereo not drawn) [167] | 0.71 | 97 |  | 1.08 | 100.67 |  |  |  |  |  |  |  |
| CN(C)C1(c2ccccc2)CCC2(CC1)CC(=O)N(CC1(O)CCC1)C2 (single isomer, unassigned) [179] | 6.7 | 93 |  | 7.5 | 99 |  |  |  |  |  |  |  |
| CN(C)C1(c2cccs2)CCC2(CCN(C(=O)C3(O)CC3)C2)CC1 (stereo not drawn) | 112 |  |  | 31.5 |  |  |  |  | 60 | 94 |  |  |
| CN(C)C1(c2cccs2)CCC2(CC1)CC(=O)N(CCC1CCC1)C2 (single isomer, unassigned) [129] | 22 | 47 |  | 367 | 51.5 |  |  |  |  |  |  |  |
| CN(C)C1(c2ccccc2)CCC2(CC1)CC(=O)N(CCC1(C#N)CCC1)C2 (single isomer, unassigned) [178] | 39.5 | 82.5 |  | 18.5 | 96.5 |  |  |  |  |  |  |  |
| CCCCN1CCC2(CCC(c3ccccc3)(N3CCC3)CC2)C1 (stereo not drawn) | 1340 |  |  | 2540 |  |  |  |  | 38.5 | 44 |  |  |
| CN(C)C1(c2ccccc2)CCC2(CC1)CC(=O)N(CC(C)(C)C#N)C2 (stereo not drawn) [310] | 195 | 52 |  | 1030 | 29.5 |  |  |  |  |  |  |  |
| CN(C)C1(Cc2ccccc2)CCC2(CCN(CC3CCCC3)C2=O)CC1 (single isomer, unassigned) [123] | 1880 | 22 |  | 150 | 71.5 |  |  |  |  |  |  |  |
| CN(C)C1(c2ccccc2)CCC2(CC1)CC(=O)N(CC1CCOCC1)C2 (single isomer, unassigned) [270] | 310 | 33.5 |  | 1160 | 34 |  |  |  |  |  |  |  |
| CN(C)C1(c2ccccc2)CCC2(CC1)CC(=O)N(CCC1(C#N)CC1)C2 (single isomer, unassigned) [176] | 104 | 63 |  | 175 | 72 |  |  |  |  |  |  |  |
| CCCCC1(N(C)C)CCC2(CC1)CC(=O)N(CCC1(C#N)CCC1)C2 (single isomer, unassigned) [404] | 138 | 52.5 |  | 6.3 | 96.5 |  |  |  |  |  |  |  |
| CN(C)C1(c2cccs2)CCC2(CC1)CC(=O)N(CCC1CCC1)C2 (single isomer, unassigned) [128] | 0.42 | 98 |  | 0.34 | 100.5 |  |  |  |  |  |  |  |
| CN(C)C1(c2ccccc2)CCC2(CC1)CC(=O)N(CC1CCCC1)C2 (stereo not drawn) | 101 |  |  | 170 |  |  |  |  | 76 | 83 |  |  |
| CN(C)C1(c2ccccc2)CCC2(CC1)CC(=O)N(CCC1(C#N)CCC1)C2 (single isomer, unassigned) [177] | 1.65 | 97.33 | 100 |  | 99.5 |  |  |  |  |  |  |  |
| CN(C)C1(c2ccccc2)CCC2(CCN(CC3CCOCC3)C2)CC1 (stereo not drawn) | 5.1 |  |  | 7 |  |  |  |  | 93 | 97.5 |  |  |
